pIC50: −log10 of the molar value.
Target: human ALK2 (Homo sapiens (Human), UniProt Q04771)
Assay: LANCE Ultra ULight enzymatic assay (FOP Enzymatic Assay), ALK2
Format: biochemical
Details: 10 μM ATP

Protein sequences, listed by entry. Tags and fused reporters are not part of them. Residues count along the entry.
UniProt Q04771, 21-509: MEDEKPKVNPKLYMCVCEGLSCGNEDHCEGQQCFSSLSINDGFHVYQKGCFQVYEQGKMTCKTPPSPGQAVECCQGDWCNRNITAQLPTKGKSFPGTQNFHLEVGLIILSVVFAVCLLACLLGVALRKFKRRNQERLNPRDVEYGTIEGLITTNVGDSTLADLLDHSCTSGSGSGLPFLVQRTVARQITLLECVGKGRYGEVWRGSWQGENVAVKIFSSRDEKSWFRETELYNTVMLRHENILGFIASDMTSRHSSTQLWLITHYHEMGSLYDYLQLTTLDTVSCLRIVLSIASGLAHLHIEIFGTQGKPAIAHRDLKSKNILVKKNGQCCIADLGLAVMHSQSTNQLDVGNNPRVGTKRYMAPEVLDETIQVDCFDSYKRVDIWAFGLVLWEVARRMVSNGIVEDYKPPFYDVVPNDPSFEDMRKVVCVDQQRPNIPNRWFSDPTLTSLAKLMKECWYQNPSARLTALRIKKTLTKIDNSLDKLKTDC

`[2H]c1ccc2c(-c3cnn4cc(-c5ccc(OCCN6CCN(C)CC6)cn5)cnc34)cccc2n1` [Compound 51, 5-(6-(5-(2-(4-methylpiperazin-1-yl)ethoxy)pyridin-2-yl)pyrazolo[1,5-a]pyrimidin-3-yl)-2-^2H-quinoline] showed a pIC50 of 6.82.
